Experimental findings from patent publication US12102644B2, “Compounds and methods of promoting myelination” (Case Western Reserve University, priority 2019, dated 2024) are described below.

For this test, the system named is estrogen-dependent cell proliferation.

As for `OCCOc1ccc(/C(=C(/CCCl)c2ccccc2)c2ccccc2)cc1` [ospemifine, Ospemifene], the cellular antiestrogenic potency entry is on record as “comparable cellular antiestrogenic potency”.
For `CN(C)CCOc1ccc(/C(=C(/CCCl)c2ccccc2)c2ccccc2)cc1` [toremifene, Toremifene] the value was “comparable cellular antiestrogenic potency”.
